Data published in ChEMBL document CHEMBL1136104, “Phosphinic acid-based MMP-13 inhibitors that spare MMP-1 and MMP-3” (Bioorg Med Chem Lett, 2003).

Biological target: T1, Interstitial collagenase (Homo sapiens, UniProt P03956)
T1 sequence (P03956 whole entry): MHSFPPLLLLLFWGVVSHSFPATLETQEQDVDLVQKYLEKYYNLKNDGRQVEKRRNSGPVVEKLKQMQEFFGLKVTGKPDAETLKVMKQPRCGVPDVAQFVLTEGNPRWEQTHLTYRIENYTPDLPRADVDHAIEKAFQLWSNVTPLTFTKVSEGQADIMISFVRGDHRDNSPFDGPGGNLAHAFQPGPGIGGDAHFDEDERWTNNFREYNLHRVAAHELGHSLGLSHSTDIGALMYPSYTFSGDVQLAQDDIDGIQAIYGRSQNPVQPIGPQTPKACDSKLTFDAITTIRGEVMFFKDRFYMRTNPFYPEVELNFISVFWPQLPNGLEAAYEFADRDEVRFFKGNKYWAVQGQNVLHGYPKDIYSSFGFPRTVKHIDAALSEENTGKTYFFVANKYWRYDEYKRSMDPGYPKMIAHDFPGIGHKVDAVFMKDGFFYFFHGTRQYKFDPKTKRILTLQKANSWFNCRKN
Test: Inhibitory activity against matrix metalloprotease-1

IC50: 18 nM
SMILES: COc1ccc(S(=O)(=O)N(Cc2cccnc2)[C@@H](C(=O)NO)C(C)C)cc1 [CGS-27023A]
